The results in this text go back to PMC5177531.

Sequences of proteins named here, by UniProt entry; tags and fusion partners are left off.
mu opioid receptor (129 WT spinal cord) (Mus musculus), P42866, UniProt P42866, whole entry: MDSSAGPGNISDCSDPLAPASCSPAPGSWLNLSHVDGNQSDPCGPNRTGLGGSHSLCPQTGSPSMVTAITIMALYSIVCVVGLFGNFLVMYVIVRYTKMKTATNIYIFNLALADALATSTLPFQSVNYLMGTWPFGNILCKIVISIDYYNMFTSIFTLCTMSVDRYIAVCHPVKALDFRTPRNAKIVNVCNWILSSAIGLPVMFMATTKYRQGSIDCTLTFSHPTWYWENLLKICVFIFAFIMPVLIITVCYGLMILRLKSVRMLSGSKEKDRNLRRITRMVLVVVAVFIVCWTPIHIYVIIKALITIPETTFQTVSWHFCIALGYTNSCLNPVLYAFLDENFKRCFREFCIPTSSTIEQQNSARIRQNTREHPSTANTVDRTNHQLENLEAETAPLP

Common to all, as to assay: radioligand
What all share (details): modification not given

Test [1] addresses mu opioid receptor (129 WT spinal cord) (Mus musculus), P42866.
Test [2] concerns the target mu opioid receptor (C57 E11 KO spinal cord) (Mus musculus), P42866.
For test [3], the target named is mu opioid receptor (C57 WT brain) (Mus musculus), P42866.
The target in test [4] is mu opioid receptor (C57 WT spinal cord) (Mus musculus), P42866.

B1: 3H-DAMGO (peptide)
chain: YAGFG
Usually Kd stands for the equilibrium constant for the complex coming apart. In the case of B1, the Kd in test [1] came out at 0.3 nM; in test [2], 0.7 nM; in test [3], 0.5 nM; in test [4], 0.6 nM.
